Target: human recombinant 5-HT4 receptors (h5-HT4) (Homo sapiens, UniProt Q13639)
Experiment: NIMH-PDSP binding to human recombinant 5-HT4 receptors, [3H]GR 113808
Settings: h5-HT4 receptors expressed in HEK293T cells; averages of triplicate measurements

Protein sequences, listed by entry. Tags and fused reporters are not part of them. Lines headed by an entry give the natural chain unless they say otherwise; changes in a name come on top.
UniProt Q13639: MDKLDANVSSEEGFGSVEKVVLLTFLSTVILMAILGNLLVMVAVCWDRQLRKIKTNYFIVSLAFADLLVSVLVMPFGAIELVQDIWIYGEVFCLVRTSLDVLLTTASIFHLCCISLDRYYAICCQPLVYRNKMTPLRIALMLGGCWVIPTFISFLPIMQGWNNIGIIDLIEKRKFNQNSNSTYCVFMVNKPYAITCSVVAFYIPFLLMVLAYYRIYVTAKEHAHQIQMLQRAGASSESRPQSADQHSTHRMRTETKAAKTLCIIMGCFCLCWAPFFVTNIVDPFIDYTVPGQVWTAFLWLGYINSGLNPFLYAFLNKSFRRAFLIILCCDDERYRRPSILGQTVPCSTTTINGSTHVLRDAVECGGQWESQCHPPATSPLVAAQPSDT

h5-HT4 Ki: much reduced affinity
Structure (SMILES): CCCCN1CCC(COC(=O)c2ccc(N)cc2OC)CC1 [Compound 12, (1-Butylpiperidin-4-yl)methyl 4-amino-2-methoxybenzoate]
